Read-outs that look alike come from different tables or passages of the source.
Columns and labels:
rat P2X7 [1] = target: T1, rat P2X7 (Rattus norvegicus (Rat), UniProt Q64663); assay: Ca2+ flux (FLIPR) in 1321N1 cells expressing recombinant rat P2X7 channel; assay type: cell-based
P2X7 [2] = target: T2, P2X7 (Homo sapiens (Human), UniProt Q99572); assay: Radioligand binding, human P2X7-1321N1 cell membranes, tritiated A-804598
Procedure: P2X7 Antagonism in Recombinant hP2X7 Cells: (a) Ca^2+ Flux (b) Radioligand Binding
(B) Radioligand binding: human or rat P2X7-1321N1 cells were collected and frozen @−80° C. On the day of the experiment, cell membrane preparations were made according to standard published methods. The total assay volume was 100 μl:10 μl compound (10×)+(b) 40 μl tracer (2.5×)+50 μl membrane (2×). The tracer used for the assay was tritiated A-804598. The compound can be prepared as described in the literature. […] The assay was terminated by filtration (GF/B filters pre-soaked with 0.3% PEI) and washed with washing buffer (Tris-HCl 50 mM). The IC50 generated in the binding assay was corrected for tracer concentration and affinity of the tracer to derive at the affinity (Ki) of the test compounds.

Amino acid sequences for entries named in this document (tags omitted). A change or cut given only in a name is not applied to a line headed by its entry.
UniProt Q64663: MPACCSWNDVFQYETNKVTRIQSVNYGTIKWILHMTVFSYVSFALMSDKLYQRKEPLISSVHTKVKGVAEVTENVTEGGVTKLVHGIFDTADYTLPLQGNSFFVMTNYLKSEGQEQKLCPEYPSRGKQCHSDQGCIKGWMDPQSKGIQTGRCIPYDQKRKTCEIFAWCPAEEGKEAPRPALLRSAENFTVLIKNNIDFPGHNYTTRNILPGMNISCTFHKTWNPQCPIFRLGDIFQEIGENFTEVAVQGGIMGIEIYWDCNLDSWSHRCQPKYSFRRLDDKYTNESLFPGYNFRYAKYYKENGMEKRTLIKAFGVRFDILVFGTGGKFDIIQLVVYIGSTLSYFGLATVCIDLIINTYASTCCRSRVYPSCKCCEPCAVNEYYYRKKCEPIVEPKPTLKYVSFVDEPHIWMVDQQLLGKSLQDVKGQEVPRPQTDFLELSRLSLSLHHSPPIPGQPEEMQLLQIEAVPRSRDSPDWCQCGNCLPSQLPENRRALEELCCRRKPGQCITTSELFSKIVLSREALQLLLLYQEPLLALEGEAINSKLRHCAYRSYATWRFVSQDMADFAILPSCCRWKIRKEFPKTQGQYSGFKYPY
UniProt Q99572: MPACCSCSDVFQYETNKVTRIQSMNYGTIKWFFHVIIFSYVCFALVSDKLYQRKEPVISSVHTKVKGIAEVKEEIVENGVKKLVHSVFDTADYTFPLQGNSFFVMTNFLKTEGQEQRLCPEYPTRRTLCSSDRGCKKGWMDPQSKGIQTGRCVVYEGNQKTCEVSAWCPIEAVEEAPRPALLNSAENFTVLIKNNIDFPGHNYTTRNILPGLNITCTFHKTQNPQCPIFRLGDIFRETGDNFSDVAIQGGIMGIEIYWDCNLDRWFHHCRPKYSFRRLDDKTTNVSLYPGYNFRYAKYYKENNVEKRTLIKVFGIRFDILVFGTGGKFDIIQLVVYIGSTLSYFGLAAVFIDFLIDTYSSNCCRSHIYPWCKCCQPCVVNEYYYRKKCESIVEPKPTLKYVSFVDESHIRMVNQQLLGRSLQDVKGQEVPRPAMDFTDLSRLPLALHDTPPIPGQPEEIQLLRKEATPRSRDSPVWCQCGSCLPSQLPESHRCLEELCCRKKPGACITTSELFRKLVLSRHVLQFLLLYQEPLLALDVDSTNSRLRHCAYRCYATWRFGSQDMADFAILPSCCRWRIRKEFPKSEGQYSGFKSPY

P2X7 [3] = target: T2, P2X7; assay: Ca2+ flux (FLIPR) in 1321N1 cells expressing recombinant human P2X7 channel; assay type: cell-based
rat P2X7 [4] = target: T1, rat P2X7; assay: Radioligand binding, rat P2X7-1321N1 cell membranes, tritiated A-804598; conditions: rat P2X7-1321N1 membranes, tracer tritiated A-804598, 1 hour 4° C.; read-out: P2X7 rat Ki
[5] = 1321N1 cells, rat P2X7, 250 μM BzATP, read-out: FLIPR (rat) IC50
[6] = human P2X7-1321N1 membranes, tracer tritiated A-804598, 1 hour 4° C., read-out: P2X7 human Ki
[7] = 1321N1 cells, human P2X7, 250 μM BzATP, read-out: FLIPR (human) IC50

SMILES | IC50 (rat P2X7 [1]) | Ki (P2X7 [2]) | IC50 (P2X7 [3]) | also measured
O=C(c1cccc(C(F)(F)F)c1Cl)N1[C@H]2CCC[C@@H]1c1nnc(-c3ncccn3)n1C2 (single isomer, unassigned) [Example 2, (6S*,10R*)-11-{[2-Chloro-3-(trifluoromethyl)phenyl]carbonyl}-3-pyrimidin-2-yl-5,6,7,8,9,10-hexahydro-6,10-epimino[1,2,4]triazolo[4,3-a]azocine] | > 10000 nM | – | – | –
O=C(c1cccc(C(F)(F)F)c1Cl)N1[C@@H]2CCC[C@H]1c1nnc(-c3ncccn3)n1C2 (single isomer, unassigned) [Example 3, (6R*,10S*)-11-{[2-Chloro-3-(trifluoromethyl)phenyl]carbonyl}-3-pyrimidin-2-yl-5,6,7,8,9,10-hexahydro-6,10-epimino[1,2,4]triazolo[4,3-a]azocine] | 8.1 nM | – | – | –
O=C(c1cccc(C(F)(F)F)c1Cl)N1[C@H]2CCC[C@@H]1c1nnc(-c3ccc(F)cc3)n1C2 (single isomer, unassigned) [Example 5, (6S*,10R*)-11-{[2-Chloro-3-(trifluoromethyl)phenyl]carbonyl}-3-(4-fluorophenyl)-5,6,7,8,9,10-hexahydro-6,10-epimino[1,2,4]triazolo[4,3-a]azocine] | 14.7 nM | 12.6 nM | 63.4 nM | –
O=C(c1cccc(C(F)(F)F)c1Cl)N1[C@@H]2CCC[C@H]1c1nnc(-c3ccc(F)cc3)n1C2 (single isomer, unassigned) [Example 6, (6R*,10S*)-11-{[2-Chloro-3-(trifluoromethyl)phenyl]carbonyl}-3-(4-fluorophenyl)-5,6,7,8,9,10-hexahydro-6,10-epimino[1,2,4]triazolo[4,3-a]azocine] | 2320 nM | – | 2300 nM | –
O=C(c1cccc(C(F)(F)F)c1Cl)N1[C@@H]2CCC[C@H]1c1nnc(-c3cscn3)n1C2 (single isomer, unassigned) [Example 9, (6R*,10S*)-11-{[2-Chloro-3-(trifluoromethyl)phenyl]carbonyl}-3-(1,3-thiazol-4-yl)-5,6,7,8,9,10-hexahydro-6,10-epimino[1,2,4]triazolo[4,3-a]azocine] | 180 nM | 398 nM | 482 nM | –
O=C(c1cccc(C(F)(F)F)c1Cl)N1[C@H]2CCC[C@@H]1c1nnc(-c3ccc(F)cn3)n1C2 (single isomer, unassigned) [Example 11, (6S*,10R*)-11-{[2-Chloro-3-(trifluoromethyl)phenyl]carbonyl}-3-(5-fluoropyridin-2-yl)-5,6,7,8,9,10-hexahydro-6,10-epimino[1,2,4]triazolo[4,3-a]azocine] | 14800 nM | – | 5690 nM | –
O=C(c1cccc(C(F)(F)F)c1Cl)N1[C@H]2CCC[C@@H]1c1nnc(-c3cccnc3)n1C2 (single isomer, unassigned) [Example 14, (6S*,10R*)-11-{[2-Chloro-3-(trifluoromethyl)phenyl]carbonyl}-3-pyridin-3-yl-5,6,7,8,9,10-hexahydro-6,10-epimino[1,2,4]triazolo[4,3-a]azocine] | 8.2 nM | 17.4 nM | 10 nM | –
O=C(c1cccc(C(F)(F)F)c1Cl)N1[C@@H]2CCC[C@H]1c1nnc(-c3ncc(F)cn3)n1C2 (single isomer, unassigned) [Example 18, (6R*,10S*)-11-{[2-Chloro-3-(trifluoromethyl)phenyl]carbonyl}-3-(5-fluoropyrimidin-2-yl)-5,6,7,8,9,10-hexahydro-6,10-epimino[1,2,4]triazolo[4,3-a]azocine] | 4.4 nM | 13.8 nM | 1.1 nM | –
O=C(c1ccc(Cl)cc1Cl)N1[C@@H]2CCC[C@H]1c1nnc(-c3ncc(F)cn3)n1C2 (single isomer, unassigned) [Example 21, (6R*,10S*)-11-[(2,4-Dichlorophenyl)carbonyl]-3-(5-fluoropyrimidin-2-yl)-5,6,7,8,9,10-hexahydro-6,10-epimino[1,2,4]triazolo[4,3-a]azocine] | 3350 nM | 50.1 nM | 94.8 nM | –
Cc1cccc(-c2nnc3n2C[C@H]2CCC[C@@H]3N2C(=O)c2cccc(C(F)(F)F)c2Cl)n1 (single isomer, unassigned) [Example 24, (6R*,10S*)-11-{[2-Chloro-3-(trifluoromethyl)phenyl]carbonyl}-3-(6-methylpyridin-2-yl)-5,6,7,8,9,10-hexahydro-6,10-epimino[1,2,4]triazolo[4,3-a]azocine] | > 10000 nM | – | 3700 nM | –
COc1ccnc(-c2nnc3n2C[C@H]2CCC[C@@H]3N2C(=O)c2cccc(C(F)(F)F)c2Cl)c1 (single isomer, unassigned) [Example 27, (6R*,10S*)-11-{[2-Chloro-3-(trifluoromethyl)phenyl]carbonyl}-3-(4-methoxypyridin-2-yl)-5,6,7,8,9,10-hexahydro-6,10-epimino[1,2,4]triazolo[4,3-a]azocine] | 1540 nM | – | 1910 nM | –
O=C(c1cccc(C(F)(F)F)c1Cl)N1[C@@H]2CCC[C@H]1c1nnc(-c3ccc(Cl)cn3)n1C2 (single isomer, unassigned) [Example 30, (6R*,10S*)-3-(5-Chloropyridin-2-yl)-11-{[2-chloro-3-(trifluoromethyl)phenyl]carbonyl}-5,6,7,8,9,10-hexahydro-6,10-epimino[1,2,4]triazolo[4,3-a]azocine] | 2770 nM | 35.5 nM | 118 nM | –
O=C(c1ccnc(C(F)(F)F)c1Cl)N1[C@@H]2CCC[C@H]1c1nnc(-c3cccs3)n1C2 (single isomer, unassigned) [Example 36, (6R*,10S*)-11-{[3-Chloro-2-(trifluoromethyl)pyridin-4-yl]carbonyl}-3-thiophen-2-yl-5,6,7,8,9,10-hexahydro-6,10-epimino[1,2,4]triazolo[4,3-a]azocine] | 338 nM | – | 36.5 nM | –
Cc1ccc(-c2nnc3n2C[C@H]2CCC[C@@H]3N2C(=O)c2ccnc(C(F)(F)F)c2Cl)s1 (single isomer, unassigned) [Example 39, (6R*,10S*)-11-{[3-Chloro-2-(trifluoromethyl)pyridin-4-yl]-carbonyl}-3-(5-methylthiophen-2-yl)-5,6,7,8,9,10-hexahydro-6,10-epimino[1,2,4]triazolo[4,3-a]azocine] | 79.8 nM | 25.1 nM | 51.1 nM | –
O=C(c1cccc(C(F)(F)F)c1Cl)N1C2CCCC1c1nnc(-c3ncccn3)n1C2 (stereo not shown) [Example 1, 11-{[2-Chloro-3-(trifluoromethyl)phenyl]carbonyl}-3-pyrimidin-2-yl-5,6,7,8,9,10-hexahydro-6,10-epimino[1,2,4]triazolo[4,3-a]azocine] | – | – | – | IC50 (rat P2X7 [1]; [5]): 4.5 nM
O=C(c1cccc(C(F)(F)F)c1Cl)N1C2CCCC1c1nnc(-c3ccc(F)cc3)n1C2 (stereo not shown) [Example 4, 11-{[2-Chloro-3-(trifluoromethyl)phenyl]carbonyl}-3-(4-fluorophenyl)-5,6,7,8,9,10-hexahydro-6,10-epimino[1,2,4]triazolo[4,3-a]azocine] | – | – | – | Ki (P2X7 [2]; [6]): 20 nM; IC50 (rat P2X7 [1]; [5]): 133 nM; IC50 (P2X7 [3]; [7]): 95.3 nM
O=C(c1cccc(C(F)(F)F)c1Cl)N1C2CCCC1c1nnc(-c3cscn3)n1C2 (stereo not shown) [Example 7, 11-{[2-Chloro-3-(trifluoromethyl)phenyl]carbonyl}-3-(1,3-thiazol-4-yl)-5,6,7,8,9,10-hexahydro-6,10-epimino[1,2,4]triazolo[4,3-a]azocine] | – | – | – | Ki (P2X7 [2]; [6]): 12.6 nM; IC50 (rat P2X7 [1]; [5]): 15.7 nM; IC50 (P2X7 [3]; [7]): 7.7 nM
O=C(c1ccc(F)c(C(F)(F)F)c1Cl)N1[C@H]2CC[C@@H]1c1nnc(-c3ccccn3)n1C2 [Example 43, (6S,9R)-10-{[2-Chloro-4-fluoro-3-(trifluoromethyl)phenyl]carbonyl}-3-pyridin-2-yl-6,7,8,9-tetrahydro-5H-6,9-epimino[1,2,4]triazolo[4,3-a]azepine] | – | – | – | Ki (P2X7 [2]; [6]): 12.9 nM; IC50 (P2X7 [3]; [7]): 20 nM
Cc1c(C(=O)N2[C@H]3CC[C@@H]2c2nnc(-c4ccccn4)n2C3)cccc1C(F)(F)F [Example 44, (6S,9R)-10-{[2-Methyl-3-(trifluoromethyl)phenyl]carbonyl}-3-pyridin-2-yl-6,7,8,9-tetrahydro-5H-6,9-epimino[1,2,4]triazolo[4,3-a]azepine] | – | – | – | IC50 (rat P2X7 [1]; [5]): 8490 nM; IC50 (P2X7 [3]; [7]): 7.7 nM
O=C(c1cccc(C(F)(F)F)c1Cl)N1[C@H]2CC[C@@H]1c1nnc(-c3ccc(F)cn3)n1C2 [Example 45, (6S,9R)-10-{[2-Chloro-3-(trifluoromethyl)phenyl]carbonyl}-3-(5-fluoropyridin-2-yl)-6,7,8,9-tetrahydro-5H-6,9-epimino[1,2,4]triazolo[4,3-a]azepine] | – | – | – | Ki (rat P2X7 [4]): 31.6 nM
Cc1nc(-c2nnc3n2C[C@@H]2CC[C@H]3N2C(=O)c2cccc(C(F)(F)F)c2Cl)cs1 [Example 56, (6S,9R)-10-{[2-Chloro-3-(trifluoromethyl)phenyl]carbonyl}-3-(2-methyl-1,3-thiazol-4-yl)-6,7,8,9-tetrahydro-5H-6,9-epimino[1,2,4]triazolo[4,3-a]azepine] | – | – | – | Ki (P2X7 [2]; [6]): 39.8 nM

Reference: patent US9102686B2, “5,6,7,8,9,10-hexahydro-6,10-epimino[1,2,4]triazolo[4,3-a]azocines as P2X7 modulators” (Janssen Pharmaceutica NV, priority 2013, dated 2015)
